Assay results taken from patent US9283222B2 (priority 2006, dated 2016).
pKi: −log10 of the molar value.

By UniProt entry, the sequences of proteins in these tests, tags left out.
UniProt P09874, whole entry: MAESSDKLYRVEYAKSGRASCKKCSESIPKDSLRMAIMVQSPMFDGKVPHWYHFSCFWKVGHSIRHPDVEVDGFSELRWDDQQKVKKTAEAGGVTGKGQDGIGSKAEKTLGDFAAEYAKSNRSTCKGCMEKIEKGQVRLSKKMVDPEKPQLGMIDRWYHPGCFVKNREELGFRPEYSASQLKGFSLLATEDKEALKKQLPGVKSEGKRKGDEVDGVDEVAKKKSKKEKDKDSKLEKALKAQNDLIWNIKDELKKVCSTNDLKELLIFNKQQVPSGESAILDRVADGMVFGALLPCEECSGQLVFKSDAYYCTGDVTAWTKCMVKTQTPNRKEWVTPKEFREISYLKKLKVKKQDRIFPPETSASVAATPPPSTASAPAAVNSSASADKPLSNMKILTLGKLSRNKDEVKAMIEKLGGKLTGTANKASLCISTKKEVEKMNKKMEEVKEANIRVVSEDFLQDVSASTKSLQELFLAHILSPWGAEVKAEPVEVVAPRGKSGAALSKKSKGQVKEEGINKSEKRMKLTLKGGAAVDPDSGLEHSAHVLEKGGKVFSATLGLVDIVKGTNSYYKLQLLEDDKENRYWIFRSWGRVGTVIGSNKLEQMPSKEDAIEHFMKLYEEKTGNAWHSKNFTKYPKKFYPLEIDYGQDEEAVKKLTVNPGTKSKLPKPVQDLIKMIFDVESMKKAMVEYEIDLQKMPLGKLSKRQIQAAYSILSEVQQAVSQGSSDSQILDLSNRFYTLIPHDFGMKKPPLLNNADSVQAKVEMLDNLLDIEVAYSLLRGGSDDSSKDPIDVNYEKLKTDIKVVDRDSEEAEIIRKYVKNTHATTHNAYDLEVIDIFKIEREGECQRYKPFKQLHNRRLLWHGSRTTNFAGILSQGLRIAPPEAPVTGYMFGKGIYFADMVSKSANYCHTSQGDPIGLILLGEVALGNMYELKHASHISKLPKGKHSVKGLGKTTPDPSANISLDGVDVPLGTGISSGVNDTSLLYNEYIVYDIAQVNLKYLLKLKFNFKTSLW

Target: Recombinant Human Poly(ADP-Ribose) Polymerase (PARP), PARP-1 (Homo sapiens (Human), UniProt P09874)

Compound	pKi
O=C1CCC(=O)N1c1cc(Cc2n[nH]c(=O)c3c2CCCC3)ccc1F	8.82
O=C1[C@@H]2CC[C@@H](C2)N1c1cc(Cc2n[nH]c(=O)c3c2CCCC3)ccc1F	8.15
